Biological target: Histone deacetylase 1 (Homo sapiens) (UniProt Q13547)
Settings: Sf9, 1 uM

Protein sequences, listed by entry. Tags and fused reporters are not part of them.
UniProt Q13547, whole entry: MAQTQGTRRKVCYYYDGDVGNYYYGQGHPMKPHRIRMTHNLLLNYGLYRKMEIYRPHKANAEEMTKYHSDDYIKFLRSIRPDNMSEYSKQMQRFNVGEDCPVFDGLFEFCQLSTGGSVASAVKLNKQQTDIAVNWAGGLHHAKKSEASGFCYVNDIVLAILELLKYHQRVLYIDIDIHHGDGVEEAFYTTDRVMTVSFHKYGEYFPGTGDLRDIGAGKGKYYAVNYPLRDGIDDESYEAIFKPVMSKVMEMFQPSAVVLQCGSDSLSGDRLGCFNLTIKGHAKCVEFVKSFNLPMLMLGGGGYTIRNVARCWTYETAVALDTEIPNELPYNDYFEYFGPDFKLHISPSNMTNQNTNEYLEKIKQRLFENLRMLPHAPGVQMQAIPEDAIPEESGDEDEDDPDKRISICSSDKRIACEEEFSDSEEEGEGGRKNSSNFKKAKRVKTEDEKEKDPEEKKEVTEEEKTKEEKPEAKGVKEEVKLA

Row | inhibition [%] | SMILES
1 | < 100 | CCCCCCCCCCOC(=O)Cc1ccc(NC(=O)CCCCCCC(=O)NO)cc1
2 | < 100 | CCCCCCCCCCCOC(=O)Cc1ccc(NC(=O)CCCCCCC(=O)NO)cc1
